Experimental data from PubChem BioAssay (NCATS).
The list shows a part of the results, in another mix than the full data. Results filed as inconclusive are left out. Active and inactive are the calls of the source. Unless noted, calls come from the whole dose curve; as a rule, active = well fitted curve in the direction sought with a large enough effect; inconclusive = small, poorly fitted or top-dose-only effect, or another doubt; inactive = no such curve, though single readings can be large; an effect the other way counts as inactive or inconclusive.

Amino acid sequences for entries named in this document (tags omitted). A change or cut given only in a name is not applied to a line headed by its entry.
UniProt O15297: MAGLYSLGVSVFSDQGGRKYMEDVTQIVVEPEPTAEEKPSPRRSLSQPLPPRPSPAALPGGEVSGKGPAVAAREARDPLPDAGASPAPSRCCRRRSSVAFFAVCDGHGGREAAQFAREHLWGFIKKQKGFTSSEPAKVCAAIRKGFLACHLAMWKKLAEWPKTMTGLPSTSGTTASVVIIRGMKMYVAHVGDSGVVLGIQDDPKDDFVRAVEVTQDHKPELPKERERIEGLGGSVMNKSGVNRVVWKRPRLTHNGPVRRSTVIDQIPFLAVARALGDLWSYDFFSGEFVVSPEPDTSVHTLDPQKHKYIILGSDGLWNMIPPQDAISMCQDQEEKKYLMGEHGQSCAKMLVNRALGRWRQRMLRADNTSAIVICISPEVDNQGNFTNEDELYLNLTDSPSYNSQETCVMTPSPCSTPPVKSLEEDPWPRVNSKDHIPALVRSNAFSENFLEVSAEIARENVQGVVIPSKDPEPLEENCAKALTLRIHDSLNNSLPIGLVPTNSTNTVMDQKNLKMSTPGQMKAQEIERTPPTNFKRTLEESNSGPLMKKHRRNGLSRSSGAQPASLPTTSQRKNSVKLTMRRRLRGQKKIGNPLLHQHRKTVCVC
UniProt Q99828: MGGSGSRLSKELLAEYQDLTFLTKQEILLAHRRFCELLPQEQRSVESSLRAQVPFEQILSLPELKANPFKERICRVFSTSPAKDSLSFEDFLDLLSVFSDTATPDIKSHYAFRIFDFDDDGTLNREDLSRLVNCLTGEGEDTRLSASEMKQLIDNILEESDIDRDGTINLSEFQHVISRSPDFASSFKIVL
UniProt P36969, whole entry, looked up: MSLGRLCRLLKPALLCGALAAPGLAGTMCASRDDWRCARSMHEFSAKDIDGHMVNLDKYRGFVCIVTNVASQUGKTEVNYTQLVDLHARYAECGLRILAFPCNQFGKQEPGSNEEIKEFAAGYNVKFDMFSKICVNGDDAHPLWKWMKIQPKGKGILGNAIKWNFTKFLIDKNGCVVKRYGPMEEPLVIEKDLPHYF
UniProt Q9R1A7: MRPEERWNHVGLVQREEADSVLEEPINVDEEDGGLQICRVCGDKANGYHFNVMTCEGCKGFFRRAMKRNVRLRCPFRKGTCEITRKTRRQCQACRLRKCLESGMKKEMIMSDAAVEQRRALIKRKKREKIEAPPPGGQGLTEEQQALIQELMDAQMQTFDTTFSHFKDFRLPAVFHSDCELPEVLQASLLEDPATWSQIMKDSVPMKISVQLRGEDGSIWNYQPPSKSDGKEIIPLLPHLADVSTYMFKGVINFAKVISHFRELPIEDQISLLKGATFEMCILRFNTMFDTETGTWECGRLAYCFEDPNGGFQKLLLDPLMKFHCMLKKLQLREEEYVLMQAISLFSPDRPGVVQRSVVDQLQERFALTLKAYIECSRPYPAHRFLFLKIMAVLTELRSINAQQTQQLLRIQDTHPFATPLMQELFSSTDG

Experiments:
[1] = qHTS of pediatric cancer cell lines to identify multiple opportunities for drug repurposing: Primary screen for SK-N-SH cells (AID 1347098); conditions: SK-N-SH viability, CellTiter-Glo luminescence, 48 h; at 57 µM (top of the series) unless noted;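 note: DMSO served as neutral control and bortezomib at 2.3 µM as positive control; % is set by controls: 0 for no effect and ±100 for the full control effect; nearly all actives have a fitted effect of over 65% in size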
[2] = qHTS of pediatric cancer cell lines to identify multiple opportunities for drug repurposing: Primary screen for NB1643 cells (AID 1347099); conditions: NB1643 neuroblastoma viability, CellTiter-Glo luminescence, 48 h; at 46 µM (top of the series) unless noted;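 note: plate controls were DMSO neutral control for no effect and bortezomib positive control for full effect; nearly all actives have a fitted effect of over 50% in size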
[3] = qHTS of pediatric cancer cell lines to identify multiple opportunities for drug repurposing: Primary screen for LAN-5 cells (AID 1347100); conditions: LAN-5 neuroblastoma viability, CellTiter-Glo luminescence, 48 h; at 46 µM (top of the series) unless noted;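 note: plate controls were DMSO neutral control for no effect and bortezomib positive control for full effect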
[4] = qHTS of pediatric cancer cell lines to identify multiple opportunities for drug repurposing: Primary screen for BT-12 cells (AID 1347101);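 note: plate controls were DMSO for no effect and bortezomib positive control for full effect; nearly all actives have a fitted effect of over 25% in size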
[5] = qHTS of pediatric cancer cell lines to identify multiple opportunities for drug repurposing: Primary screen for Rh18 cells (AID 1347102); conditions: Rh18 rhabdomyosarcoma viability, CellTiter-Glo luminescence, 48 h; at 46 µM (top of the series) unless noted; note: % is set by controls: 0 for no effect and ±100 for the full control effect; nearly all actives have a fitted effect of over 65% in size
[6] = qHTS of pediatric cancer cell lines to identify multiple opportunities for drug repurposing: Primary screen for OHS-50 cells (AID 1347103);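 note: plate controls were DMSO neutral control for no effect and bortezomib positive control for full effect; nearly all actives have a fitted effect of over 40% in size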
[7] = qHTS of pediatric cancer cell lines to identify multiple opportunities for drug repurposing: Primary screen for RD cells (AID 1347104); conditions: RD rhabdomyosarcoma viability, CellTiter-Glo luminescence, 48 h; at 46 µM (top of the series) unless noted;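 note: plate controls were DMSO for no effect and bortezomib for full effect; nearly all actives have a fitted effect of over 55% in size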
[8] = qHTS of pediatric cancer cell lines to identify multiple opportunities for drug repurposing: Primary screen for MG 63 (6-TG R) cells (AID 1347105); conditions: MG 63 (6-TG R) viability, CellTiter-Glo, 48 h; at 46 µM (top of the series) unless noted; note: % is set by controls: 0 for no effect and ±100 for the full control effect; nearly all actives have a fitted effect of over 50% in size
[9] = qHTS of pediatric cancer cell lines to identify multiple opportunities for drug repurposing: Primary screen for control Hh wild type fibroblast cells (AID 1347106); conditions: Hh wild-type fibroblast viability, CellTiter-Glo luminescence, 48 h; at 46 µM (top of the series) unless noted;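 note: % is set by controls: 0 for no effect and ±100 for the full control effect; a drop in luminescence marks cytotoxicity and a rise apparent proliferation; nearly all actives have a fitted effect of over 55% in size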
[10] = qHTS of pediatric cancer cell lines to identify multiple opportunities for drug repurposing: Primary screen for Rh30 cells (AID 1347107); conditions: Rh30 rhabdomyosarcoma viability, CellTiter-Glo luminescence, 48 h; at 46 µM (top of the series) unless noted; note: % is set by controls: 0 for no effect and ±100 for the full control effect; nearly all actives have a fitted effect of over 75% in size
[11] = qHTS of pediatric cancer cell lines to identify multiple opportunities for drug repurposing: Primary screen for Rh41 cells (AID 1347108); conditions: Rh41 rhabdomyosarcoma viability, CellTiter-Glo luminescence, 48 h; at 46 µM (top of the series) unless noted;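 note: luminescence drop marks cytotoxic hits; nearly all actives have a fitted effect of over 70% in size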
[12] = qHTS to identify inhibitors of the type 1 interferon - major histocompatibility complex class I in skeletal muscle: primary screen against the NCATS Pharmaceutical Collection (AID 1347407); conditions: human skeletal muscle cells, IFN-b-induced MHC-I HiBiT luminescence, 24 h; at 45.9 µM (top of the series) unless noted;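 note: luminescence of HiBiT knocked into endogenous HLA-B as interferon-induced MHC class I level; % is set by controls: 0 for no effect and ±100 for the full control effect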
In short: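 Compounds […] were added to CRISPR-engineered HLA-B-HiBiT C25cl48 human myoblasts with 4.0 ng/ml IFN-beta. After 24 hrs at 37 C, cells were lysed and HiBiT luminescence measured.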

[13] = molecular target: Protein phosphatase 1D (Homo sapiens) (UniProt O15297); experiment: RapidFire Mass Spectrometry qHTS Assay for Modulators of WT P53-Induced Phosphatase 1 (WIP1) (AID 1347424); conditions: WIP1 dephosphorylation of phosphopeptide, RapidFire MS; at 63 µM (top of the series) unless noted;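 note: amount of dephosphorylated VEPPL-S-QETFS peptide product formed by WIP1; plate controls were DMSO wells for no effect and GSK830371 inhibitor control at 10 µM for full effect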
In short: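 10 nM WIP1 + cpd, 1 h RT; + 2 uM VEPPL-pS-QETFS, 5 min RT; stop 0.5% formic acid; labelled product standard 1 uM; RapidFire MS. Buffer 50 mM Tris pH 7.5, 30 mM MgCl2, 1 mM TCEP.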

[14] = molecular target: Protein phosphatase 1D (Homo sapiens) (UniProt O15297); experiment: Rhodamine-PBP qHTS Assay for Modulators of WT P53-Induced Phosphatase 1 (WIP1) (AID 1347425); conditions: recombinant WIP1, Rhodamine-PBP phosphate fluorescence, real-time; at 57.5 µM (top of the series) unless noted; note: % of control where 0% means no effect
In short: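 Steps: enzyme with Rh-PBP sensor and compounds, room-temperature incubation of 1 hr, baseline read, addition of VEPPL-pS-QETFS (10 uM final), kinetic fluorescence reads at 525/598 nm. Activity equals final minus baseline signal.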

[15] = Primary qHTS for Huh7 cytotoxicity: counterscreen for inhibitors of MERS-S pseudotyped particle cell entry (AID 1479147; calls by dose curve); conditions: cell viability read-out; at 57.1 µM (top of the series)
[16] = molecular target: Calcium and integrin-binding protein 1 (Homo sapiens) (UniProt Q99828); experiment: Primary qHTS for Identification of Calcium Integrin Binding Protein 1 (CIB1) Competitor (AID 1508620); conditions: CIB1-GST / FITC-alphaIIb peptide fluorescence polarization; at 114 µM (top of the series) unless noted;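 note: GST tagged CIB1 binding a fluorescein labelled alphaIIb integrin peptide tracer; top concentration of the series differs between compounds; % is set by controls: 0 for no effect and ±100 for the full control effect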
[17] = A High-Content qHTS Against Drug Library for the Identification of Small Molecules that Inhibit DYT1 Early Onset Primary Dystonia-Associated Cell Pathology (AID 1645839; calls by dose curve)
In short: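 In this high-content image screen, delE TorsinA mislocalization in inducible Flp-In 293 cells is scored as %pathology, with cell count serving as the counterscreen. Compound exposure lasts 48 h under tetracycline induction in reduced-serum medium.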

[18] = molecular target: Phospholipid hydroperoxide glutathione peroxidase GPX4 (Homo sapiens) (UniProt P36969); experiment: Primary qHTS Assay for Inhibitors of Recombinant Selenoprotein Glutathione Peroxidase 4 (GPX4) (AID 1845192); conditions: recombinant GPX4, GR-coupled NADPH fluorescence, 15 min; activity change, negative = inhibition: at 50 µM (top of the series); note: % is set by controls: 0 for no effect and ±100 for the full control effect; nearly all actives have a fitted effect of over 65% in size
In short: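 NADPH consumption, followed by fluorescence at 340/450 nm between 0 and 15 min, reports GPX4 activity via coupled glutathione reductase (100 nM). Enzyme 200 nM was pre-exposed to compound 30 min; 0.5 mM cumene hydroperoxide and 1 mM GSH served as substrates.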

[19] = tested on: CRL-7250; experiment: Cytotoxic Profiling of Annotated Libraries Using Quantitative High-Throughput Screening (AID 1296008); conditions: Five cell lines viability, CellTiter-Glo ATP luminescence, 48-72 h; active compounds read low; note: nearly all actives have a fitted effect of over 60% in size; for max response: % is set by controls: 0 for no effect and ±100 for the full control effect
[20] = tested on: HaCat; experiment: as above; conditions: Five cell lines viability, CellTiter-Glo ATP luminescence, 48-72 h; active compounds read low
[21] = tested on: KB-3-1; experiment: as above; conditions: Five cell lines viability, CellTiter-Glo ATP luminescence, 48-72 h, active compounds read low
[22] = tested on: NIH3T3; experiment: as above; conditions: Five cell lines viability, CellTiter-Glo ATP luminescence, 48-72 h; active compounds read low
[23] = tested on: CRL-7250; experiment: qHTS assay to identify novel small-molecules to repurpose for Merkel cell carcinoma treatment (AID 1296009); conditions: MCC and control cell lines, CellTiter-Glo viability, 72 h; at 44.8 µM (top of the series) unless noted; note: nearly all actives have a fitted effect of over 60% in size; for activity change, negative = cytotoxicity: % is set by controls: 0 for no effect and ±100 for the full control effect
[24] = tested on: MCC-13; experiment: as above; conditions: MCC and control cell lines, CellTiter-Glo viability, 72 h; at 46 µM (top of the series) unless noted
[25] = tested on: MCC-26; experiment: as above; conditions: MCC and control cell lines, CellTiter-Glo viability, 72 h; at 46 µM (top of the series) unless noted
[26] = tested on: MKL-1; experiment: as above; conditions: MCC and control cell lines, CellTiter-Glo viability, 72 h; at 46 µM (top of the series) unless noted
[27] = tested on: MKL-2; experiment: as above; conditions: MCC and control cell lines, CellTiter-Glo viability, 72 h; at 46 µM (top of the series) unless noted
[28] = tested on: UISO; experiment: as above; conditions: MCC and control cell lines, CellTiter-Glo viability, 72 h; at 46 µM (top of the series)
[29] = tested on: WaGa; experiment: as above; conditions: MCC and control cell lines, CellTiter-Glo viability, 72 h; at 46 µM (top of the series) unless noted
[30] = Drug repurposing screens with cells derived from glioblastoma tumor samples (AID 1345199); conditions: GBM patient neurospheres viability, ATP luminescence, 48 h; Potency: tumour line A; series mostly up to 46.1 µM; note: % is set by controls: 0 for no effect and ±100 for the full control effect; nearly all actives have a fitted effect of over 40% in size
In short: (§1)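 Four patient lines of CD133+ GBM neurospheres were screened at several concentrations; hits were retested in those lines plus three slower-growing GBM lines, using 48-hour treatment and ATP-based viability.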

[31] = tested on: astro; experiment: as above; conditions: viability, ATP luminescence, 48 h; at 45.9 µM (top of the series) unless noted
In short: as §1

[32] = molecular target: Nuclear receptor subfamily 1 group I member 2 (Rattus norvegicus) (UniProt Q9R1A7); experiment: qHTS assay for small molecule activators of the rat pregnane X receptor (rPXR) signaling pathway (AID 651751; call rule not given here; note: 0% is about no effect); conditions: rPXR reporter cells, luciferase (One-Glo), 24 h
[33] = qHTS assay for small molecule activators of the human pregnane X receptor (PXR) signaling pathway (AID 720659; call rule not given here; note: 0% is about no effect); conditions: DPX-2 HepG2 CYP3A4-luciferase, 24 h; at 92.3 µM (top of the series)

NC(=O)Nc1ccc([As](=O)(O)O)cc1
inactive: activity change, negative = cytotoxic [1] -7.76% | activity change, negative = cytotoxic [2] 16.9% | activity change, negative = cytotoxic [3] -0.423% | Potency [4] | activity change, negative = cytotoxic [5] -4.25% | Potency [6] | activity change, negative = cytotoxic [7] 19.9% | activity change, negative = cytotoxic [8] -8.83% | activity change, negative = cytotoxic [9] -6.15% | activity change, negative = cytotoxic [10] 20.1% | activity change, negative = cytotoxic [11] 20.6% | activity change, negative = inhibition [12] -0.273% | activity change, negative = inhibition [13] -2.8% | activity change, negative = inhibition [14] 3.79% | outcome [15] | activity change, negative = inhibition [16] -12.6% | Potency [17] | activity change, negative = inhibition [18] 3.06% | outcome [19] | max response [20] -17.8% | max response [21] -1.83% | max response [22] -15.5% | outcome [23] | activity change, negative = cytotoxicity [24] 14.2% | activity change, negative = cytotoxicity [25] 2.06% | activity change, negative = cytotoxicity [26] 20.2% | activity change, negative = cytotoxicity [27] 7.86% | activity change, negative = cytotoxicity [28] 13.3% | activity change, negative = cytotoxicity [29] 4.95% | Potency [30] | activity, negative = cell killing [31] -4.79% | max response [32] 13.3% | activation [33] -7.31%
